{
  "source": "patent US9783499B2",
  "about": "“Quinoline derivatives and their applications” (Shenyang Pharmaceutical University, priority 2012, dated 2017)",
  "format_in_all_cases": "cell-based",
  "settings_in_all_cases": "72 hours",
  "key": {"[1]": {"test_system": "HT-29 (colon cancer cell)", "experiment": "In vitro anti-tumor cellular activity (MTT), HT-29"}, "[2]": {"test_system": "U87MG (Human malignant glioblastoma cell)", "experiment": "In vitro anti-tumor cellular activity (MTT), U87MG"}, "[3]": {"test_system": "MKN-45 (human gastric carcinoma cell)", "experiment": "In vitro anti-tumor cellular activity (MTT), MKN-45", "experimental": "(§1) The in vitro inhibitory activity of the quinoline derivatives of formula I in the invention was evaluated against the cancer cell lines H460 (human lung cancer cell), HT-29 (colon cancer cell), MKN-45 (human gastric carcinoma cell), SMMC-7721 (hepatoma cell), MDA-MB-231 (human beast cancer cell), U87MG (Human malignant glioblastoma cell). […] After pouring the cell dissociation buffer to the centrifugetube, nutrient solution was added to stop digestion. The centrifugetube were centrifuged for 10 min under 800 r/min, the liquid supernatant was removed, 5 mL culture solution was added, after mixing by pipetting the cell, took 10 μL cell suspension to the cell counting plat, and adjusted the cell concentration to 10^4/well. Among the 96 wells, A1 is empty, 100 μL of cell suspension were added to the other wells. The 96 well plates were incubated in the incubator for 24 h. […] The 96-well plates were placed in an incubator and cultivated for 72 hours. (3) The culture media containing the compounds in the 96-well plates was discarded, and the cells were washed with phosphate buffered solution (PBS) twice. Each well was added with 100 μL MTT (tetrazole) (0.5 mg/mL), and then placed in an incubator to incubate for 4 hours, after which MTT solution was discarded and 100 μL dimethyl sulfoxide was added thereto. The reaction product of survival cells with MTT, i.e. formazan, was dissolved completely by oscillation on a magnetic oscillator, then placed into a microplate reader to measure the results, and the IC50 values of compounds could be deduced by Bliss method."}, "[4]": {"test_system": "MDA-MB-231 (human beast cancer cell)", "experiment": "In vitro anti-tumor cellular activity (MTT), MDA-MB-231", "experimental": "as §1"}, "[5]": {"test_system": "H460 (human lung cancer cell)", "experiment": "In vitro anti-tumor cellular activity (MTT), H460", "experimental": "as §1"}, "[6]": {"test_system": "SMMC-7721 (hepatoma cell)", "experiment": "In vitro anti-tumor cellular activity (MTT), SMMC-7721", "experimental": "as §1"}},
  "data": [
    {"compound": "COc1cc2c(Oc3ccc(NC(=O)NN=Cc4ccc(F)cc4Cl)cc3F)ccnc2cc1OCCCN1CCCC1", "values": [
      {"measurement": "HT-29 IC50", "setting": "[1]", "result": 0.15, "unit": "µg/mL"},
      {"measurement": "U87MG IC50", "setting": "[2]", "result": 0.95, "unit": "µg/mL"},
      {"measurement": "MKN-45 IC50", "setting": "[3]", "result": 0.62, "unit": "µg/mL"},
      {"measurement": "MDA-MB-231 IC50", "setting": "[4]", "result": 0.40, "unit": "µg/mL"},
      {"measurement": "H460 IC50", "setting": "[5]", "result": 0.33, "unit": "µg/mL"},
      {"measurement": "SMMC-7721 IC50", "setting": "[6]", "result": 1.0, "unit": "µg/mL"}
    ]},
    {"compound": "COc1cccc(C=NNC(=O)Nc2ccc(Oc3ccnc4cc(OCCCN5CCCC5)c(OC)cc34)c(F)c2)c1", "values": [
      {"measurement": "HT-29 IC50", "setting": "[1]", "result": 1.2, "unit": "µg/mL"},
      {"measurement": "U87MG IC50", "setting": "[2]", "result": 0.91, "unit": "µg/mL"},
      {"measurement": "MKN-45 IC50", "setting": "[3]", "result": 1.3, "unit": "µg/mL"},
      {"measurement": "MDA-MB-231 IC50", "setting": "[4]", "result": 0.85, "unit": "µg/mL"},
      {"measurement": "H460 IC50", "setting": "[5]", "result": 0.99, "unit": "µg/mL"},
      {"measurement": "SMMC-7721 IC50", "setting": "[6]", "result": 1.7, "unit": "µg/mL"}
    ]},
    {"compound": "COc1cc2c(Oc3ccc(C=NNC(=O)Nc4cc(Cl)cc(Cl)c4)cc3F)ccnc2cc1OCCCN1CCCCC1", "note": "[Example 48, (E)-N^1-(3,5-dichlorophenyl)-N^4-(3-fluoro-4-(6-methoxy-7-(3-(piperidin-1-yl)propoxy)quinoline-4-yloxy)benzaldehyde)semicarbazone]", "values": [
      {"measurement": "HT-29 IC50", "setting": "[1]", "result": 0.16, "unit": "µg/mL"},
      {"measurement": "U87MG IC50", "setting": "[2]", "result": 0.33, "unit": "µg/mL"},
      {"measurement": "MKN-45 IC50", "setting": "[3]", "result": 0.082, "unit": "µg/mL"},
      {"measurement": "MDA-MB-231 IC50", "setting": "[4]", "result": 0.13, "unit": "µg/mL"},
      {"measurement": "H460 IC50", "setting": "[5]", "result": 0.077, "unit": "µg/mL"},
      {"measurement": "SMMC-7721 IC50", "setting": "[6]", "result": 0.20, "unit": "µg/mL"}
    ]},
    {"compound": "COc1cc2c(Oc3ccc(C=NNC(=O)Nc4ccc(Cl)c(C(F)(F)F)c4)cc3F)ccnc2cc1OCCCN1CCN(C)CC1", "note": "[Example 51, (E)-N^1-(4-chloro-3-(trifluoromethyl)phenyl)-N^4-(3-fluoro-4-(6-methoxy-7-(3-(4-methyl-1-piperazinyl)propoxy)quinoline-4-yloxy)benzaldehyde)semicarbazone]", "values": [
      {"measurement": "HT-29 IC50", "setting": "[1]", "result": 0.31, "unit": "µg/mL"},
      {"measurement": "MKN-45 IC50", "setting": "[3]", "result": 0.98, "unit": "µg/mL"},
      {"measurement": "MDA-MB-231 IC50", "setting": "[4]", "result": 0.19, "unit": "µg/mL"},
      {"measurement": "H460 IC50", "setting": "[5]", "result": 0.23, "unit": "µg/mL"},
      {"measurement": "SMMC-7721 IC50", "setting": "[6]", "result": 1.4, "unit": "µg/mL"}
    ]},
    {"compound": "COc1cc2c(Oc3ccc(C=NNC(=O)Nc4ccc(Cl)cc4)cc3F)ccnc2cc1OCCCN1CCN(C)CC1", "note": "[Example 53, (E)-N^1-(4-chlorophenyl)-N^4-(3-fluoro-4-(6-methoxy-7-(3-(4-methyl-1-piperazinyl)propoxy)quinoline-4-yloxy)benzaldehyde)semicarbazone]", "values": [
      {"measurement": "HT-29 IC50", "setting": "[1]", "result": 0.19, "unit": "µg/mL"},
      {"measurement": "U87MG IC50", "setting": "[2]", "result": 0.54, "unit": "µg/mL"},
      {"measurement": "MKN-45 IC50", "setting": "[3]", "result": 0.48, "unit": "µg/mL"},
      {"measurement": "MDA-MB-231 IC50", "setting": "[4]", "result": 0.25, "unit": "µg/mL"},
      {"measurement": "H460 IC50", "setting": "[5]", "result": 0.32, "unit": "µg/mL"},
      {"measurement": "SMMC-7721 IC50", "setting": "[6]", "result": 0.53, "unit": "µg/mL"}
    ]},
    {"compound": "(E)-N^1-(3,5-dimethoxyphenyl)-N^4-(3-fluoro-4-(6-methoxy-7-(3-(4-methylpiperidin-1-yl)propoxy)quinoline-4-yloxy)benzaldehyde)semicarbazone [Example 59]", "values": [
      {"measurement": "HT-29 IC50", "setting": "[1]", "result": 1.4, "unit": "µg/mL"},
      {"measurement": "U87MG IC50", "setting": "[2]", "result": 1.9, "unit": "µg/mL"},
      {"measurement": "MKN-45 IC50", "setting": "[3]", "result": 0.80, "unit": "µg/mL"},
      {"measurement": "MDA-MB-231 IC50", "setting": "[4]", "result": 0.45, "unit": "µg/mL"},
      {"measurement": "H460 IC50", "setting": "[5]", "result": 0.60, "unit": "µg/mL"},
      {"measurement": "SMMC-7721 IC50", "setting": "[6]", "result": 3.5, "unit": "µg/mL"}
    ]}
  ]
}
